Antibody variant affinities, Ab-14 light chain, assay B

Target peptide (SARS-CoV-2 spike, HR2 region): PDVDLGDISGINAS

The variants keep the heavy chain, the linker and the frameworks of Ab-14 (scFv order VH, a (GGGGS)3 linker, VL).
VH: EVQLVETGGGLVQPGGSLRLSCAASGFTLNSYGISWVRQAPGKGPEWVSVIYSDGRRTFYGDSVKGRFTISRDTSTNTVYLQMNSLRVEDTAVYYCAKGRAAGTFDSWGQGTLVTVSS
VL: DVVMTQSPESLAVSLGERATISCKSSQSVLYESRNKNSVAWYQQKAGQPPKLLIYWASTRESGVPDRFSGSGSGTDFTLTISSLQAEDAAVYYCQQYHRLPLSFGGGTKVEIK

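Phage display of a naive human antibody library on the peptide gave the parent. Designed CDR sequences, proposed from the first random library and measured here. Group labels follow the data file (Ctrl: baseline library sampled from a position-specific scoring matrix, with some repeated check sequences; En: ensemble of fine-tuned language models; GP: Gaussian process model; HC: hill climbing; Gen: genetic algorithm; Gibbs: Gibbs sampling; a sequence that several methods proposed may carry one label only). The scFvs were displayed on barcoded MATa yeast, the peptide on MATalpha yeast. Binding brings cells together so that they mate, and sequencing counts the barcode pairs among the diploids. Scores were corrected for input abundance and mapped to Kd with protein pairs of known affinity run in the same pool. Each pool was mated in six replicate cultures.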

Each variant's VL is given in full. Affinities are written as log10 Kd with Kd in nM; a lower number is a better binder. Replicates are averaged; those with no signal do not enter the mean. "not detected" means that the variant was in the library but no mating with the target was seen in any replicate; the authors take this as a sign of poor binding, and no number exists.

| VL | group | mean, log10 nM | replicates with signal |
|---|---|---|---|
| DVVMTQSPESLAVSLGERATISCKLSWSELYESRNKNSVAWYQQKAGQPPKLLIYNASTRESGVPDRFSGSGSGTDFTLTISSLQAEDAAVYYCQQYHRLPLSFGGGTKVEIK | GP_Gen | -0.27 | 6 of 6 |
| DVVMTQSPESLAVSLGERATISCKLSQLMLYESRMKNSVAWYQQKAGQPPKLLIYNASTRGSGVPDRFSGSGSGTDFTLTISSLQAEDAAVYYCQQYHRLPLSFGGGTKVEIK | GP_Gibbs | -0.08 | 6 of 6 |
| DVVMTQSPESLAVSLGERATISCKVSPSWLYESRNKNSVAWYQQKAGQPPKLLIYNASTRESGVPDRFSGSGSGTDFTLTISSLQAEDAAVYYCQQYHRLPLSFGGGTKVEIK | GP_Gen | -0.03 | 6 of 6 |
| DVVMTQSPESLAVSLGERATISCKSSQSVLFESRNKNSVAWYQQKAGQPPKLLIYWASTRESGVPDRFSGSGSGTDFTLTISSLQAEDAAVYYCQQYHRLNLSFGGGTKVEIK | Ctrl | 2.07 | 4 of 6 |
| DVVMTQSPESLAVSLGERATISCSLTRFNLQNQGNSNNIAWYQQKAGQPPKLLIYDTNQVQEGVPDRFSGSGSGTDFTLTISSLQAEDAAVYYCQQYFRLPFAFGGGTKVEIK | En_Gibbs | 0.10 | 6 of 6 |
| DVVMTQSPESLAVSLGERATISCKLSQSQLYESRNKMSVAWYQQKAGQPPKLLIYNASTRESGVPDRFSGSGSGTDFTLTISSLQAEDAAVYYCQQYHRLPLSFGGGTKVEIK | GP_Gen | -0.19 | 6 of 6 |
| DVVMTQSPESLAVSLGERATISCKLSQSVLYESRNKNSVAWYQQKAGQPPKLLIYNASTRWSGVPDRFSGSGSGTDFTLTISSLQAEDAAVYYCQQYHRLPLSFGGGTKVEIK | GP_Gen | -0.33 | 6 of 6 |
| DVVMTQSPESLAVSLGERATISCKSSQSVLYESNNVHSVAWYQQKAGQPPKLLIYWASTRESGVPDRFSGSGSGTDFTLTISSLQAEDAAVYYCQQYHRLPTSFGGGTKVEIK | Ctrl | not detected | 0 of 6 |
| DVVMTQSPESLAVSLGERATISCKSSQSVLYLSRNKNSVAWYQQKAGQPPKLLIYWASTREKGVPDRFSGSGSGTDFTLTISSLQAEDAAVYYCQQYTRLPLSFGGGTKVEIK | Ctrl | not detected | 0 of 6 |
| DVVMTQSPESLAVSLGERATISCKRQQSVLYESTNKNSVAWYQQKAGQPPKLLIYWASTRESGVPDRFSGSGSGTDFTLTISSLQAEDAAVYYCQQYHRLPLSFGGGTKVEIK | Ctrl | 2.17 | 1 of 6 |

The remaining entries, values ahead:

| mean, log10 nM | replicates with signal | VL | group |
|---|---|---|---|
| 0.24 | 6 of 6 | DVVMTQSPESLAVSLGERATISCKIQHLTYFESEGEWSVAWYQQKAGQPPKLLIYDANTSVLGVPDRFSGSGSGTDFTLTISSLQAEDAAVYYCQDYFRLPLSFGGGTKVEIK | En_Gibbs |
| 0.05 | 6 of 6 | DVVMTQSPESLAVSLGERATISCKSLQSGLYESRNFNSVAWYQQKAGQPPKLLIYHASTREDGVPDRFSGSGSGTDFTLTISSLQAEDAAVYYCQQYHRLPLSFGGGTKVEIK | GP_HC |
| 0.81 | 6 of 6 | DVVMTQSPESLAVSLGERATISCNMKVGLNFEDIQHQAIAWYQQKAGQPPKLLIYSVDERESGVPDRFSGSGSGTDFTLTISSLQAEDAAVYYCQQYARLPLTFGGGTKVEIK | En_Gibbs |
| 1.00 | 6 of 6 | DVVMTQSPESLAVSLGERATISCKFSQSDPYEDGNKNSVAWYQQKAGQPPKLLIYNASTRCSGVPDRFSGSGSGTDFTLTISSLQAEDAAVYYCQQYHRLPLSFGGGTKVEIK | GP_Gibbs |
| -0.32 | 6 of 6 | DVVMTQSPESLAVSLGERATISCKLSQSVGYESRNVNNVAWYQQKAGQPPKLLIYNASTRELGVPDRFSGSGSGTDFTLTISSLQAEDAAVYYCQQYHRLPLSFGGGTKVEIK | GP_Gibbs |
| 0.58 | 6 of 6 | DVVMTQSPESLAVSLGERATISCQISQVMGLSMHGVNNVAWYQQKAGQPPKLLIYQMETRTDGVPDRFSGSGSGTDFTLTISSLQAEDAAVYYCQQYDRLPLSFGGGTKVEIK | En_Gen |
| 0.45 | 6 of 6 | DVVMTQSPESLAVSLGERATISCKLSMITGHLSMIKNNVAWYQQKAGQPPKLLIYEMETRENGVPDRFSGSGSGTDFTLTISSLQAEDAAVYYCQQYERLPLSFGGGTKVEIK | En_Gen |
| 2.68 | 1 of 6 | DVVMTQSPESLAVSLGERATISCKPSQSVLYESRNKNSVAWYQQKAGQPPKLLIYWASTREQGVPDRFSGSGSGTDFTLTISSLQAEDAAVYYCQQYHGLPLSFGGGTKVEIK | Ctrl |
| 1.68 | 6 of 6 | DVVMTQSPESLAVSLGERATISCSLHMYTLGEKNANNSIAWYQQKAGQPPKLLIYEKSYRAIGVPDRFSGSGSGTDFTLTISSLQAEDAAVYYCQQYSHLPLCFGGGTKVEIK | En_Gibbs |
| 0.93 | 6 of 6 | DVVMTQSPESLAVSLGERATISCKFSQSVLYESRNFNSVAWYQQKAGQPPKLLIYWASTRMSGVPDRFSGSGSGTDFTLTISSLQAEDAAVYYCQQYHRLPLQFGGGTKVEIK | Ctrl |
| -0.02 | 6 of 6 | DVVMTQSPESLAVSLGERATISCKFQQSWLYESRMQNNVAWYQQKAGQPPKLLIYNASLRESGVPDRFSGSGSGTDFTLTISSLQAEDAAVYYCQQYHRLPLSFGGGTKVEIK | GP_Gibbs |

2 of these entries, quoted again:

{"VL": "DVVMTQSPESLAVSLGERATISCSLHMYTLGEKNANNSIAWYQQKAGQPPKLLIYEKSYRAIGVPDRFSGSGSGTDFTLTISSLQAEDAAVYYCQQYSHLPLCFGGGTKVEIK", "group": "En_Gibbs", "mean, log10 nM": "1.68", "replicates with signal": "6 of 6"}
{"VL": "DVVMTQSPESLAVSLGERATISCSLTRFNLQNQGNSNNIAWYQQKAGQPPKLLIYDTNQVQEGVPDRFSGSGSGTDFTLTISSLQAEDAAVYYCQQYFRLPFAFGGGTKVEIK", "group": "En_Gibbs", "mean, log10 nM": "0.10", "replicates with signal": "6 of 6"}

Empty control strains, which show no peptide, gave a signal in 4% of pairings with all light chain designs; the median was 2.64 and 95% of these signals were weaker than 1.59. No background was subtracted. Of ten entries with the parent sequence, four were seen in most replicates (averages 0.34 to 2.37), three in one and three in none, so single entries are noisy. Values of this round are not directly comparable with the first-round values of the same sequences. In the paper, a design with two or fewer of six values counts as a poor binder.

Data: MIT Lincoln Laboratory AlphaSeq set, Li et al. 2023, doi:10.1038/s41467-023-39022-2, as distributed in FLAb.